{"source": "ChEMBL document CHEMBL5338706", "about": "“Discovery of a potent and selective proteolysis targeting chimera (PROTAC) degrader of NSD3 histone methyltransferase” (Eur J Med Chem, 2022)", "format_in_all_cases": "functional", "key": {"NCI-H520": {"test_system": "NCI-H520", "assay": "Induction of apoptosis in human NCI-H520 cells assessed as decrease in MCL-1 protein expression at 10 uM by measuring fold change by Western blot analysis relative to control"}, "[1]": {"assay": "Downregulation of Cyclin D1 level in human NCI-H520 cells at 3 uM by measuring fold change by Western blot analysis relative to control"}, "[2]": {"assay": "Downregulation of c-Myc level in human NCI-H1703 cells at 5 uM by measuring fold change by Western blot analysis relative to control"}, "NCI-H1703 [3]": {"test_system": "NCI-H1703", "assay": "Induction of apoptosis in human NCI-H1703 cells assessed as decrease in NSD3 protein expression at 5 uM by measuring fold change by Western blot analysis relative to control"}, "[4]": {"assay": "Downregulation of Cyclin D1 level in human NCI-H1703 cells at 7.5 uM by measuring fold change by Western blot analysis relative to control"}, "[5]": {"assay": "Downregulation of CDC25A level in human NCI-H1703 cells at 5 uM by measuring fold change by Western blot analysis relative to control"}, "[6]": {"assay": "Downregulation of NSD3 level in human NCI-H1703 cells at 5 uM by measuring fold change by Western blot analysis relative to control"}, "NCI-H1703 [7]": {"test_system": "NCI-H1703", "assay": "Induction of apoptosis in human NCI-H1703 cells assessed as decrease in Bcl-XL protein expression at 10 uM by measuring fold change by Western blot analysis relative to control"}}}
{"smiles": "Cc1cc(CNCCCCCCCCCCC(=O)N[C@H](C(=O)N2C[C@H](O)C[C@H]2C(=O)N[C@@H](C)c2ccc(-c3scnc3C)cc2)C(C)(C)C)cc(C)c1-c1ncn(C)c1-c1ccnc2cc(F)ccc12", "values": [{"measurement": "fold change (FC)", "setting": "NCI-H520", "value": 0.52}, {"measurement": "fold change (FC)", "setting": "[1]", "value": 0.76}, {"measurement": "fold change (FC)", "setting": "[2]", "value": 0.87}, {"measurement": "fold change (FC)", "setting": "NCI-H1703 [3]", "value": 0.87}, {"measurement": "fold change (FC)", "setting": "[4]", "value": 0.51}, {"measurement": "fold change (FC)", "setting": "[5]", "value": 0.87}, {"measurement": "fold change (FC)", "setting": "[6]", "value": 0.85}, {"measurement": "fold change (FC)", "setting": "NCI-H1703 [7]", "value": 0.79}]}
